Screening data deposited in PubChem BioAssay by Broad Institute.
Hits are enriched below; roughly 2.1% of the tested compounds scored in any of these assays.
MITF TRPM1 HTS: activators of MITF-driven TRPM1 promoter activity in SK-MEL-5 cells; activation, % at 12.5 µM; SK-MEL-5 TRPM1-promoter luciferase, 24 h; % of positive control, neutral wells = 0; 300,000 tested, 0.75% active;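 active = mean activation of at least 80% with every replicate also reaching 80%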;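 also: 0% = neutral control wells and 100% = parthenolide positive control wells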
MITF TRPM1 inh: inhibitors of MITF-driven TRPM1 promoter in melanoma cells; SK-MEL-5 TRPM1 promoter luciferase, 24 h; inhibition, % at 12.5 µM; 330,000 tested, 0.83% active;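 active = mean inhibition across replicates of 60% or more, whatever share of single replicates reaches that level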
Wnt act: activators of Wnt/beta-catenin signaling. Wnt/beta-catenin reporter cell assay, activator, plate reader. activation, % at 9.35 µM. 300,000 tested, 1.2% active; in the data active = activation above about 30%, passing the limit was not always enough;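 also: 0% = neutral control wells and 100% = positive control wells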
miR-122 sensor: miR-122 inhibition in Huh7 cells. AID 602342. activation (reporter increase), % at 12.5 µM. 340,000 tested, 0.3% active. Huh7 miR-122 Renilla luciferase sensor, 48 h; neutral wells = 0, positive control = 100;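 active = mean replicate activation score at least 90 and every replicate individually at or above 90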;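 also: higher luciferase means less miR-122 activity so hits act as miR-122 inhibitors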
PGC1a acetyl inh: PGC1a acetylation modulation, inhibitor mode | inhibition, % at 15.6 µM | 350,000 tested, 0.17% active | U2OS PGC1a acetylation, AlphaScreen anti-acetyl-lysine; with virally co-expressed GCN5 acetyltransferase;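 active = every replicate shows inhibition of at least 40%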;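 also: 0% = neutral control wells and 100% = positive control wells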
Yeast UUG start: modulators of yeast start codon fidelity, primary screen, whole organism, S. cerevisiae, single point, plate reader | AID 602363, 2012 | S. cerevisiae UUG-firefly luciferase reporter, luminescence/redox ratio | activity score, % at 18.7 µM | hit rate 0.13% among 350,000;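 active = replicate mean at a twofold rise or more, about +100% in these data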;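 also: firefly luciferase made from a UUG start codon reports start codon fidelity; reporter light over untreated wells divided by growth signal over untreated wells; some hits fall short of that in this replicate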
The depositor's hits bear a star; / = no result; [ ] = another dose, or the depositor's remark.

A first look, 2 compounds:
Values in the order – MITF TRPM1 HTS, MITF TRPM1 inh, Wnt act, miR-122 sensor, PGC1a acetyl inh, Yeast UUG start
1. COc1cc2c(c(OC)c1OC)-c1ccc(N(C)CC(OC)OC)c(=O)cc1[C@@H](NC(C)=O)CC2
  -70, 73*, -14, /, /, /
2. CCN(CC)c1ccc2c(cc1=O)[C@@H](NC)CCc1cc(OC)c(OC)c(OC)c1-2
  -67, 66*, -3, /, /, -6

Results, from the first entry:
Values in the order – MITF TRPM1 HTS, MITF TRPM1 inh, Wnt act, miR-122 sensor, PGC1a acetyl inh, Yeast UUG start
1. COc1cc2c(c(OC)c1OC)-c1ccc(N(C)CC(OC)OC)c(=O)cc1[C@@H](NC(C)=O)CC2
  -70, 73*, -14, /, /, /
2. CCN(CC)c1ccc2c(cc1=O)[C@@H](NC)CCc1cc(OC)c(OC)c(OC)c1-2
  -67, 66*, -3, /, /, -6
3. COCc1nc2oc3ccc(C)cc3c(=O)c2cc1C(=O)OC
  91*, -108, 4, -12, 8, -22
4. COCc1nc2oc3ccc(F)cc3c(=O)c2cc1C(=O)OC
  /, -55, 5, 6, 4, -15
5. CC1=NC(=O)C(N=Nc2ccccc2)N1c1ccccc1 (stereo unspecified)
  17, -16, /, 6, -1, -19
6. CC1=NC(=O)C(N=Nc2cccc(C(=O)O)c2)N1c1ccccc1 (stereo unspecified)
  -78, 81*, 2, 1, -6, /
7. Cc1noc(C)c1S(=O)(=O)Nc1ccc2c(c1)CC(=O)N([C@H](C)CO)C[C@@H](C)[C@H](CN(C)Cc1ccc(C(=O)O)cc1)O2
  /, /, /, 8[16.7 µM], 2, -18
8. O=C(c1ccco1)n1nc(-c2ccccc2)nc1SCc1ccccc1
  58, -63, 41*, -2, -11, -4
9. O=C(COC(=O)c1cccc(O)c1)c1ccccc1
  79, -80, 53*, /, /, /
10. Nc1cccc(C(=O)OCC(=O)c2ccccc2)c1
  58, -51, 40*, /, /, /
11. COCCOC(=O)N1C(=O)[C@@]2(c3cc(C#CCCO)ccc31)[C@H](c1ccccc1OCCO)N1[C@H](c3ccccc3)[C@H](c3ccccc3)OC(=O)[C@H]1[C@@H]2C(=O)N1CCN(c2ncccn2)CC1
  /, /, /, /, /, 7
12. C[C@H]1CN([C@@H](C)CO)C(=O)CCCn2cc(nn2)CO[C@H]1CN(C)S(=O)(=O)c1ccc(-c2ccccc2)cc1
  /, /, /, -5[16.7 µM], -3, 8
13. O=C(C[C@@H]1CC[C@H]2[C@@H](COC[C@@H](O)CN2C(=O)C2CCCC2)O1)NCc1ccncc1
  /, /, /, 138*[16.7 µM], 6, 6
14. O=C(C[C@H]1CC[C@@H]2[C@H](COC[C@H](O)CN2C(=O)C2CCCC2)O1)NCc1ccncc1
  /, /, /, 122*[16.7 µM], 1, 15
15. COc1ccc(S(=O)(=O)Nc2ccc3c(c2)C(=O)N([C@H](C)CO)C[C@H](C)[C@H](CN(C)C(=O)Nc2ccc4c(c2)OCO4)O3)cc1
  /, /, /, -4[16.7 µM], -3, -2
16. COc1ccc2c(c1OC)CN1CCc3cc4c(cc3[C@@H]1[C@@H]2O)OCO4
  10, -3, /, -5, -5, -15
17. O[C@@H]1[C@@H](O)C=C2CCN3Cc4cc5c(cc4[C@H]1C23)OCO5 (stereo partly specified)
  -60, 63*, -20, -24, /, -11
18. c1cc2cc(-c3c(-c4ccc5c(c4)OCO5)noc3-c3ccsc3)ccc2[nH]1
  42, -39, 33*, -2, -6, -12
19. CO[C@H]1CN(C)C(=O)c2cc(NC(=O)C3CCC3)ccc2OC[C@@H](C)N(C(=O)NC(C)C)C[C@H]1C
  /, /, /, /, -13, 19
20. CC1=C(CO)C(=O)OC([C@@H](C)C2CC[C@H]3C4C[C@H]5O[C@]56[C@@H](O)C=CC(=O)[C@]6(C)C4CC[C@]23C)C1 (stereo partly specified)
  -106, 106*, -3, -25, 14, 10
21. C[C@H]1CN([C@@H](C)CO)C(=O)c2cc(NC(=O)c3ccncc3)ccc2O[C@@H]1CN(C)Cc1ccc(-c2ccccc2)cc1
  /, /, /, 0[16.7 µM], -8, -8
22. Cc1cccc(N/N=C/c2ccc(O)c(O)c2O)c1
  0, 2, 0, /, 11, /
23. Cc1cccc(N/N=C/c2ccc(C)s2)c1
  104*, -101, 6, 8, -5, -15
24. C[C@H]1CN([C@@H](C)CO)C(=O)Cc2cc(NS(=O)(=O)c3ccc(Cl)cc3)ccc2O[C@@H]1CN(C)Cc1ccc(C(=O)Nc2ccccc2N)cc1
  /, /, /, /, -10, /
25. C[C@H](CO)N1C[C@H](C)[C@H](CN(C)Cc2ccc(C(=O)Nc3ccccc3N)cc2)Oc2ccc(NS(=O)(=O)c3cccs3)cc2CC1=O
  /, /, /, 104*[16.7 µM], -12, -3
26. COc1ccc(S(=O)(=O)Nc2ccc3c(c2)CC(=O)N([C@H](C)CO)C[C@H](C)[C@H](CN(C)Cc2ccc(C(=O)Nc4ccccc4N)cc2)O3)cc1
  /, /, /, 212*[16.7 µM], 7, /
27. C[C@H](CO)N1C[C@H](C)[C@H](CN(C)Cc2ccc(C(=O)Nc3ccccc3N)cc2)Oc2ccc(NS(=O)(=O)c3ccc(F)cc3)cc2CC1=O
  /, /, /, 162*[16.7 µM], 3, 6
28. C[C@H](CO)N1C[C@H](C)[C@H](CN(C)Cc2ccc(C(=O)Nc3ccccc3N)cc2)Oc2ccc(NS(=O)(=O)c3ccccc3)cc2CC1=O
  /, /, /, 145*[16.7 µM], 11, -1
29. COc1ccc(S(=O)(=O)Nc2ccc3c(c2)CC(=O)N([C@H](C)CO)C[C@@H](C)[C@@H](CN(C)Cc2ccc(C(=O)Nc4ccccc4N)cc2)O3)cc1
  /, /, /, -2[16.7 µM], -12, /
30. C[C@@H]1CN([C@H](C)CO)C(=O)Cc2cc(NS(=O)(=O)c3cccs3)ccc2O[C@H]1CN(C)Cc1ccc(C(=O)Nc2ccccc2N)cc1
  /, /, /, /, -1, /
31. CN(C)CCCNC(=O)C[C@H]1C=C[C@@H](NS(=O)(=O)c2ccccc2)[C@H](CO)O1
  /, /, /, 13[16.7 µM], -7, 1
32. O=C(CSc1nnnn1C1CCCCC1)Nc1cccc(NC(=O)c2ccco2)c1
  11, -8, 60*, 10, -39, -5
33. O=C(Nc1ccc2c(c1)ncn2C1CCCCC1)c1ccco1
  /, -63, 45*, 1, 15, -16
34. CC(C)n1cnc2cc(NC(=O)c3ccco3)ccc21
  57, -57, 19, /, /, -25
35. COc1ccc(CN(C)C[C@H]2Oc3ccc(NS(C)(=O)=O)cc3CC(=O)N([C@H](C)CO)C[C@@H]2C)cc1
  /, /, /, 11[16.7 µM], 13, -4
36. Cc1ccc(OCCn2c(=O)sc3ccccc32)cc1
  92*, -94, 23, -4, -10, -14
37. O=c1sc2ccccc2n1CCCOc1ccccc1
  52, -49, 71*, -9, -1, -8
38. CCNC(=O)[C@@H]1[C@@H](CO)[C@@H]2Cn3c(ccc(-c4ccccc4)c3=O)[C@@H]2N1C(=O)C1CC1
  /, /, /, 2[16.7 µM], /, -6
39. Nc1ccc2nc3c(=O)n(C4CCCCC4)c(=O)[nH]c3nc2c1
  79, -75, 43*, -15, 5, /
40. CCCCn1c(=O)[nH]c2nc3cc(N)ccc3nc2c1=O
  36, -39, 0, -5, /, -32
41. CNc1sc(C(=O)c2ccc(F)cc2)c(N)c1-c1nc2ccccc2s1
  7, -6, -1, 0, 3, -19
42. CNc1sc(C(=O)c2cccs2)c(N)c1-c1nc2ccccc2s1
  98*, -95, /, 4, 2, /
43. C[C@H]1CN([C@@H](C)CO)C(=O)c2cccc(NC(=O)C3CCOCC3)c2O[C@@H]1CN(C)Cc1ccc(-c2ccccc2)cc1
  /, /, /, 4[16.7 µM], -3, 21

Compound profiles (already shown):
CN(C)CCCNC(=O)C[C@H]1C=C[C@@H](NS(=O)(=O)c2ccccc2)[C@H](CO)O1 is listed as MITF TRPM1 HTS = /; MITF TRPM1 inh = /; Wnt act = /; miR-122 sensor = 13[16.7 µM]; PGC1a acetyl inh = -7; Yeast UUG start = 1
O=C(CSc1nnnn1C1CCCCC1)Nc1cccc(NC(=O)c2ccco2)c1 is listed as MITF TRPM1 HTS = 11; MITF TRPM1 inh = -8; Wnt act = 60*; miR-122 sensor = 10; PGC1a acetyl inh = -39; Yeast UUG start = -5
